For this data set, the system named is MT4. Kind of data set: Cytotoxicity against human MT4 cells after 5 days by MTT assay. It is filed as cell-based. Conditions: mt4, 120 h. In outline: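 MT-4 cells in RPMI 1640 with 10% heat-inactivated FCS, 2 mM L-glutamine, 0.1% bicarbonate and gentamicin, seeded at 6 × 10⁵ cells/mL final with virus or mock infection. Viability read by MTT after 5 days at 540 and 690 nm, using the median OD of three wells. CC50 is 50% loss of mock-infected OD540. EC50 is 50% inhibition of virus-induced CPE. SI = CC50/EC50. Mean ± SD of ≥2 experiments.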
(In general: Tetrazolium assays rely on reduction of a dye to a coloured formazan, in cell work by metabolically active cells.)

In general, CC50 refers to the concentration at which the toxic effect on the cells reaches its halfway point.

For the molecule `O=[N+]([O-])c1ccc(-[n+]2ccc(-c3cc[n+](-c4ccc([N+](=O)[O-])cc4[N+](=O)[O-])cc3)cc2)c([N+](=O)[O-])c1`, the CC50 was 107 µM.

Values taken from ChEMBL document CHEMBL1155465, “"Viologen" dendrimers as antiviral agents: the effect of charge number and distance” (J Med Chem, 2010).
